# Data published in patent publication US5856189A, “Cell culture model for drug bioavailability” (priority 1997, dated 1999).
# Chains of the proteins cited; added tags and fusions are not shown. Residues count along the entry.
# UniProt P08684, 2-503: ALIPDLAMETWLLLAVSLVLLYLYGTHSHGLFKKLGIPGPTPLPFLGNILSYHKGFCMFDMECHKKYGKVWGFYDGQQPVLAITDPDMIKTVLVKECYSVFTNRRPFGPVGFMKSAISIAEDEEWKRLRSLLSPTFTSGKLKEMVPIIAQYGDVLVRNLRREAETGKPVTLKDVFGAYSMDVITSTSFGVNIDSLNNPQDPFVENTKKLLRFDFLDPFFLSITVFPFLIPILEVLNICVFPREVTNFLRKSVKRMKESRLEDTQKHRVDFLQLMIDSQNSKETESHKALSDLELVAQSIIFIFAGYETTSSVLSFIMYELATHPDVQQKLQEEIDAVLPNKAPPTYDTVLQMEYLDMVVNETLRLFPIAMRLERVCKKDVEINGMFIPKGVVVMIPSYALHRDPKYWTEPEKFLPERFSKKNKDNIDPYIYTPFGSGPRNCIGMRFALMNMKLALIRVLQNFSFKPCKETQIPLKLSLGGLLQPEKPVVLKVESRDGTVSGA
# Read-outs that look alike come from different tables or passages of the source.
# Key:
# [1] = molecular target: CYP3A (Caco-2 cells) (Homo sapiens, UniProt P08684)
# [2] = tested on: CYP3A (Caco-2 cells); settings: Matrigel
# [3] = tested on: human jejunal microsomes (CYP3A4, CYP3A5)
# [4] = tested on: CYP3A7; settings: J. C. Gorski et al.; cited from earlier work
# [5] = tested on: human duodenal microsomes (CYP3A); test: Intrinsic 1'-OH-MDZ formation clearance, human duodenal mucosa/microsomes; format: in vitro ADME; settings: n = 8
# Protocol: (§1) For comparison, an intrinsic 1'-OH-MDZ formation clearance was determined for eight paired human duodenal and jejunal mucosae. The mucosal mass was removed from ~1 foot sections of duodenum and jejunum and total homogenate and microsomes were prepared, as described above. Two of eight preparations contained relatively low amounts of CYP3A5 in addition to CYP3A4, which were resolved from one another by SDS-PAGE. Microsomes were incubated with varying concentrations of MDZ for determination of Km and Vmax parameters for 1'-hydroxylation. Protein concentrations for homogenate and microsomes were measured by the Lowry et al. method [J. Biol. Chem. 193:265-275 (1951)]. The specific CYP3A4 content (pmol/mg protein) in homogenate and microsomes was measured by immunoblot analysis [E. D. Kharasch and K. E. Thummel, Anesth. Analg. 76:1033-1039 (1993)].
# (§2) The total amount of microsomal protein per gram of mucosa was determined from the following relationship: [formula] This calculation assumes that CYP3A4 found in mucosal homogenate resides exclusively within the microsomal fraction. The microsomal intrinsic formation clearance was calculated as the ratio of Vmax to Km. The intrinsic 1'-OH-MDZ formation clearance per gram of mucosa was calculated as the product of the microsomal intrinsic formation clearance and the computed amount of microsomal protein per gram of mucosa.
# [6] = tested on: human jejunal microsomes (CYP3A); test: Intrinsic 1'-OH-MDZ formation clearance, human jejunal mucosa/microsomes; format: in vitro ADME; settings: n = 8
# Protocol: as §1, §2
# [7] = clone 5, 336 h 1α,25-(OH)2-D3, Matrigel, 7.5 h incubation
# [8] = clone 7, 336 h 1α,25-(OH)2-D3, Matrigel, 7 h incubation
# [9] = clone 7, 336 h 1α,25-(OH)2-D3, laminin, 7 h incubation
# [10] = clone 5, untreated, 7.5 h incubation
compound,measurement,setting,value
Cc1ncc2n1-c1ccc(Cl)cc1C(c1ccccc1F)=NC2 [midazolam],"1'-OH-MDZ/4-OH-MDZ ratio, apical",[1]; [7],5.4
same,"1'-OH-MDZ/4-OH-MDZ ratio, basolateral",[1]; [7],5.2
same,product formation ratio,"[1]; clone 7, 1α,25-(OH)2 -D3 treated, laminin or Matrigel",greater than 5
same,"1'-OH-MDZ/4-OH-MDZ ratio, apical","[1]; clone 7, 120 h 1α,25-(OH)2-D3, Matrigel, 6 h incubation",5.1
same,"1'-OH-MDZ/4-OH-MDZ ratio, apical","[1]; clone 7, 336 h 1α,25-(OH)2-D3, Matrigel, 6 h incubation",5.3
same,"1'-OH-MDZ/4-OH-MDZ ratio, apical",[1]; [8],5.3
same,"1'-OH-MDZ/4-OH-MDZ ratio, basolateral",[1]; [8],5.2
same,"1'-OH-MDZ/4-OH-MDZ ratio, apical",[1]; [9],5.4
same,"1'-OH-MDZ/4-OH-MDZ ratio, basolateral",[1]; [9],5.2
same,"1'-OH-MDZ/4-OH-MDZ ratio, apical",[2]; [10],4.5
same,"1'-OH-MDZ/4-OH-MDZ ratio, basolateral",[2]; [10],3.6
same,"1'-OH-MDZ/4-OH-MDZ ratio, apical","[2]; clone 7, 12 h 1α,25-(OH)2-D3, 6 h incubation",3.8
same,1'-OH-MDZ/4-OH-MDZ ratio,"[3]; HI-19 (CYP3A4), 0.25 μM MDZ",7.4
same,1'-OH-MDZ/4-OH-MDZ ratio,"[3]; HI-19 (CYP3A4), 1.00 μM MDZ",8.1
same,1'-OH-MDZ/4-OH-MDZ ratio,"[3]; HI-19 (CYP3A4), 4.00 μM MDZ",6.8
same,1'-OH-MDZ/4-OH-MDZ ratio,"[3]; HI-19 (CYP3A4), 8.00 μM MDZ",5.6
same,1'-OH-MDZ/4-OH-MDZ ratio,"[3]; HI-20 (CYP3A4), 0.25 μM MDZ",9.0
same,1'-OH-MDZ/4-OH-MDZ ratio,"[3]; HI-20 (CYP3A4), 1.00 μM MDZ",8.9
same,1'-OH-MDZ/4-OH-MDZ ratio,"[3]; HI-20 (CYP3A4), 4.00 μM MDZ",7.1
same,1'-OH-MDZ/4-OH-MDZ ratio,"[3]; HI-20 (CYP3A4), 8.00 μM MDZ",5.8
same,1'-OH-MDZ/4-OH-MDZ ratio,"[3]; HI-28 (CYP3A4), 0.25 μM MDZ",8.5
same,1'-OH-MDZ/4-OH-MDZ ratio,"[3]; HI-28 (CYP3A4), 1.00 μM MDZ",8.6
same,1'-OH-MDZ/4-OH-MDZ ratio,"[3]; HI-28 (CYP3A4), 4.00 μM MDZ",7.0
same,1'-OH-MDZ/4-OH-MDZ ratio,"[3]; HI-28 (CYP3A4), 8.00 μM MDZ",5.7
same,1'-OH-MDZ/4-OH-MDZ ratio,"[3]; HI-30 (CYP3A4 & 3A5), 0.25 μM MDZ",15.4
same,1'-OH-MDZ/4-OH-MDZ ratio,"[3]; HI-30 (CYP3A4 & 3A5), 1.00 μM MDZ",12.1
same,1'-OH-MDZ/4-OH-MDZ ratio,"[3]; HI-30 (CYP3A4 & 3A5), 4.00 μM MDZ",12.2
same,1'-OH-MDZ/4-OH-MDZ ratio,"[3]; HI-30 (CYP3A4 & 3A5), 8.00 μM MDZ",9.7
same,1'-OH-MDZ/4-OH-MDZ ratio,"[3]; HI-31 (CYP3A4 & 3A5), 0.25 μM MDZ",11.2
same,1'-OH-MDZ/4-OH-MDZ ratio,"[3]; HI-31 (CYP3A4 & 3A5), 1.00 μM MDZ",10.6
same,1'-OH-MDZ/4-OH-MDZ ratio,"[3]; HI-31 (CYP3A4 & 3A5), 4.00 μM MDZ",8.7
same,1'-OH-MDZ/4-OH-MDZ ratio,"[3]; HI-31 (CYP3A4 & 3A5), 8.00 μM MDZ",7.0
same,1'-OH-MDZ/4-OH-MDZ ratio,"[3]; HI-35 (CYP3A4 & 3A5), 0.25 μM MDZ",11.1
same,1'-OH-MDZ/4-OH-MDZ ratio,"[3]; HI-35 (CYP3A4 & 3A5), 1.00 μM MDZ",10.3
same,1'-OH-MDZ/4-OH-MDZ ratio,"[3]; HI-35 (CYP3A4 & 3A5), 4.00 μM MDZ",8.3
same,1'-OH-MDZ/4-OH-MDZ ratio,"[3]; HI-35 (CYP3A4 & 3A5), 8.00 μM MDZ",6.7
same,1'-OH-MDZ/4-OH-MDZ product ratio with CYP3A7,[4],less than unity
same,"interindividual variation of intrinsic clearance, duodenum",[5],15 fold
same,"interindividual variation of intrinsic clearance, jejunum",[6],20 fold
